Laboratory results: patent US12577190B2, “Method for producing polyol-based esters of ketocarboxylic acids” (KetoLipix Therapeutics GmbH, priority 2019, dated 2026)

Tested on: pancreatin (Panzytrat 40,000)
Assay: Cleavage experiments with pancreatin, acid number recorded over time
Details: individual esters in pure form, water, 50° C.
Experimental: Both media are from the company Biorelevant®, Ltd. in Great Britain. In addition, in some experiments porcine pancreas is added (Panzytrat® 40,000, Fa. Allergan).
The pancreatin is used in the form of the commercially available product Panzytrat® 40,000 from the Allergan company. The whole mixture is stirred on a hot plate at 50° C.; the course of the reaction is determined and monitored by continuously recording the acid number over time.

With “3-oxobutyric acid tetra-diglycerol ester” the cleavage by pancreatin was “cleaved”.
